Where a name gives a salt, the structure may show the parent alone. Read-outs that look alike come from different tables or passages of the source.

Protein sequences, listed by entry. Tags and fused reporters are not part of them.
UniProt Q15910, whole entry Y641F: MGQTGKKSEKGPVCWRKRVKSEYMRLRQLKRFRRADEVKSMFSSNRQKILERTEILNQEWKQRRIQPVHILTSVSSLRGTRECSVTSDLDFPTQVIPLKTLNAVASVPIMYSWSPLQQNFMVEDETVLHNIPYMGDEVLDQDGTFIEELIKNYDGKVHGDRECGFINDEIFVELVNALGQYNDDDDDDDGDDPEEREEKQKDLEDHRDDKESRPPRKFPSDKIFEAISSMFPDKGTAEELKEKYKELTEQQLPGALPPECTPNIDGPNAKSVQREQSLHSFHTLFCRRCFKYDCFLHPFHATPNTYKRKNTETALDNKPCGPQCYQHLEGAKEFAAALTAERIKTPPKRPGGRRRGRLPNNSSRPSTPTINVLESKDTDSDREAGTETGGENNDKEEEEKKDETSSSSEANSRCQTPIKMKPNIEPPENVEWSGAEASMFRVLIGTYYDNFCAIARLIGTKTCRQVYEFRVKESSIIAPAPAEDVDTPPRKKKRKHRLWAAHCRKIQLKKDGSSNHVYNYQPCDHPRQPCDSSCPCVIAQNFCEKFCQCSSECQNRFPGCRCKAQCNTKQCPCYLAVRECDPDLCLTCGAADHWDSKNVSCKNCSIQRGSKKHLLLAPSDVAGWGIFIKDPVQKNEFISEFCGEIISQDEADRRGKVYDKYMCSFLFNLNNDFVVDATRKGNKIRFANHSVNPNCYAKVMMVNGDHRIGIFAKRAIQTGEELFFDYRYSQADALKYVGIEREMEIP
UniProt Q15910, whole entry A677G: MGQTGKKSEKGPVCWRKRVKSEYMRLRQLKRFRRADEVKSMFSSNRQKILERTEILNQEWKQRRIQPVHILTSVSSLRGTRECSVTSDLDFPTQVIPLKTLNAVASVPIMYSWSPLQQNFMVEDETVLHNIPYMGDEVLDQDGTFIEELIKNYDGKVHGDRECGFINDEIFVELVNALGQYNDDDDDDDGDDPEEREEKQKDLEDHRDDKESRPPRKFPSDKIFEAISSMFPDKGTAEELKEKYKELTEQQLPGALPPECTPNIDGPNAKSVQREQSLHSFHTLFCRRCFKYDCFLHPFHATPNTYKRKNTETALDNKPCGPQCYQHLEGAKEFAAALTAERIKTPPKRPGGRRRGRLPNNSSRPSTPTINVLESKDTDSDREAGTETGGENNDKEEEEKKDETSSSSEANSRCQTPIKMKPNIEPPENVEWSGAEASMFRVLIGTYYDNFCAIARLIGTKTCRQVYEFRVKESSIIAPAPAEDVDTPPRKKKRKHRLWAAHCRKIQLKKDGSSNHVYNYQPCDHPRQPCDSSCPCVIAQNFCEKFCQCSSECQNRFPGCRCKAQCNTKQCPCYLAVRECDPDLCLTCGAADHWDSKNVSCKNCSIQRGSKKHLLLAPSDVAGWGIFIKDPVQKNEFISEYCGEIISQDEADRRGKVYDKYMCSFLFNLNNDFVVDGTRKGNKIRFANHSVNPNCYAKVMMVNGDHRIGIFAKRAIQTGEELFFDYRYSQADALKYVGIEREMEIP
UniProt Q15910, whole entry Y641N: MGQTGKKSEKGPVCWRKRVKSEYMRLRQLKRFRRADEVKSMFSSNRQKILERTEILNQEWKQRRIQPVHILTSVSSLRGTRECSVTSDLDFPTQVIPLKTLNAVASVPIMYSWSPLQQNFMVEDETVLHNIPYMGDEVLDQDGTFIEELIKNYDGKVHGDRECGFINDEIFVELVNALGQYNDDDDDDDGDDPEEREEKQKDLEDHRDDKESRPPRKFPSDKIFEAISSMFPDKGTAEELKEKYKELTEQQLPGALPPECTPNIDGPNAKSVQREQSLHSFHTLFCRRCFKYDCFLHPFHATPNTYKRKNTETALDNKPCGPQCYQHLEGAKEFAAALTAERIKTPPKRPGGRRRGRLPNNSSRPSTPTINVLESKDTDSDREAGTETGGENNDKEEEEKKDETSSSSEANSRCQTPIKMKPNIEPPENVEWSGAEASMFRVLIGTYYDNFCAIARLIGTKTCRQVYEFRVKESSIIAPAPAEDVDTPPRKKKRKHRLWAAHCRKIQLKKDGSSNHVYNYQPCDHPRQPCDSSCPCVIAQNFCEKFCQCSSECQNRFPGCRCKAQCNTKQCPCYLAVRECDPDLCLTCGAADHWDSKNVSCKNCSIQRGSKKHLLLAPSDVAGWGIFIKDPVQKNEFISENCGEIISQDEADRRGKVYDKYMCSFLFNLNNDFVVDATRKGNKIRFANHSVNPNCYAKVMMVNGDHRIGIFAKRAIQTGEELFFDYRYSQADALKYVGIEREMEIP
UniProt Q15910, whole entry: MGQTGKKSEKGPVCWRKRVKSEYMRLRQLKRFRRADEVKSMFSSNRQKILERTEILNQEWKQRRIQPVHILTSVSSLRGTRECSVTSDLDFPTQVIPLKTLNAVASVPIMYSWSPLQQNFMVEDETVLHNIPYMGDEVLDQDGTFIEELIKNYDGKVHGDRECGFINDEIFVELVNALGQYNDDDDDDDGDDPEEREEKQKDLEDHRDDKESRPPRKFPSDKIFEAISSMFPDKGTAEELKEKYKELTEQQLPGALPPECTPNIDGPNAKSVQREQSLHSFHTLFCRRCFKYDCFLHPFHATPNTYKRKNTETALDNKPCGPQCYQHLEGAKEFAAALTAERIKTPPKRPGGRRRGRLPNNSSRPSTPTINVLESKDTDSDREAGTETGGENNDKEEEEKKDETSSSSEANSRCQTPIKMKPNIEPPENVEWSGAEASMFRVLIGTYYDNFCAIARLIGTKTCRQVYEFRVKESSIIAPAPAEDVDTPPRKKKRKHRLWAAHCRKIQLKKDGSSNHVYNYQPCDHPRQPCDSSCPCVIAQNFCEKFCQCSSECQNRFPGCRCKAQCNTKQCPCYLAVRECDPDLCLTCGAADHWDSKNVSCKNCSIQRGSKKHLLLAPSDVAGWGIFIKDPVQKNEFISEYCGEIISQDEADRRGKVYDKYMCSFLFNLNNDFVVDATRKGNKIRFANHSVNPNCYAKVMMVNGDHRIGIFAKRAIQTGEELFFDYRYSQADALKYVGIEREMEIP

Experiment [1] has as its system human diffuse large B-cell lymphoma cells (WSU-DLCL2 cell). Kind of experiment: Pharmacodynamic experiment, WSU-DLCL2 transplanted tumor model in mice. The format is in vivo, mice (CB17/SCID). The note with it: Mus musculus, WSUDLCL2, po, 504 h, read-out: inhibited tumor growth. How it is done: The effect of the inventive compounds on tumor growth was discussed. A certain amount of compound was weighted and dissolved in 0.1% Tween under vortex and ultrasound, and 0.5% carboxymethyl cellulose sodium (CMC-NA) solution was added to form a uniform solution. […] Each mouse was inoculated with 1*10^7 cells with a volume of 100 μL. […] [table]

The test system is the same in experiment [2]. Kind of experiment: Pharmacodynamic experiment in combination with other drugs, WSU-DLCL2 transplanted tumor model in mice. In kind it is in vivo, mice (CB17/SCID). Particulars: 125 mg/kg, intragastrically, twice a day for 21 days. The protocol:
(§1) The effect of the inventive compounds on tumor growth was discussed.
(§2) A certain amount of compound was weighted and dissolved in 0.1% Tween under vortex and ultrasound, and 0.5% carboxymethyl cellulose sodium (CMC-NA) solution was added to form a uniform solution.
(§3) Under sterile conditions, diffuse large B-cell lymphoma cells (WSU-DLCL2 cell) in logarithmic growth stage were digested and mixed with Matrigel and transplanted subcutaneously on the right back of mice (CB17/SCID) with severe combined immunodeficiency disease. Each mouse was inoculated with 1*10^7 cells with a volume of 100 μL. After inoculation, the mice were randomly divided into 10 groups according to the tumor size balance evenly for in vivo pharmacodynamic experiments, with 6 mice in each group. The positive control group was given EPZ-6438 and GSK126, and the negative control group was given the same amount of menstruum.

The subject of experiment [3] is human diffuse large cell lymphoma B lymphocytes (Pfeiffer cell). Kind of experiment: Pharmacodynamic experiment, Pfeiffer transplanted tumor model in mice. In kind it is in vivo, mice (beige SCID). Particulars: Mus musculus, po, 504 h, intragastrically, once a day for 21 days, read-out: inhibited tumor growth. How it is done: as §1, §2
The human diffuse large cell lymphoma B lymphocytes (Pfeiffer cell) were ordered from Cobioer, Nanjing, and were cultured with RPMI1640 (Kangning, 35417005), 20% fetal calf serum (Ausbina, 0986180) and 1% penicillin/streptomycin double-antibody (Kangning, 30002297).
as §3, with “conditions, human” for “conditions,”, “large cell” for “large B-cell”, “lymphoma B lymphocytes (Pfeiffer” for “lymphoma cells (WSU-DLCL2”, “mice (beige SCID)” for “mice (CB17/SCID)”, “into 12” for “into 10”

Experiment [4] deals with Mutant type EZH2(Y641F) (Homo sapiens (Human), UniProt Q15910, Y641F). Kind of experiment: AlphaLISA, mutant type PRC2 complex EZH2(Y641F). The format is biochemical. The note with it: read-out: Mutant type EZH2(Y641F) IC50 Nanomoles per Liter. In general terms: Bead proximity is the source of the signal in Alpha formats.
Experiment [5] has as its target Mutant type EZH2(A677G) (Homo sapiens (Human), UniProt Q15910, A677G). Kind of experiment: AlphaLISA, mutant type PRC2 complex EZH2(A677G). In kind it is biochemical. Particulars: read-out: Mutant type EZH2(A677G) IC59 Nanomoles per Liter.
The target in experiment [6] is Mutant type EZH2(Y641N) (Homo sapiens (Human), UniProt Q15910, Y641N). The experiment is described as follows: AlphaLISA, mutant type PRC2 complex EZH2(Y641N). The format is biochemical. The note with it: read-out: Mutant type EZH2(Y641N) IC50 Nanomoles per Liter.
Experiment [7] has as its target wild-type EZH2 (Homo sapiens (Human), UniProt Q15910). The experiment is described as follows: radiometric assay, activity to wild-type EZH2 of PRC2. The note with it: read-out: Wild-type EZH2 IC50 Nanomoles per Liter.
In experiment [8] the test system is human diffuse large cell lymphoma B lymphocytes (Pfeiffer cell). Kind of experiment: Pfeiffer cell proliferation, Calcein AM staining. In kind it is cell-based. Particulars: Homo sapiens, Pfeiffer, read-out: Pfeiffer Proliferation IC50 Nanomoles per Liter (nM).

As to `CCN(c1cc(-c2ccc(CN3CCOCC3)cc2)cc(C(=O)NCc2c(C)cc(C)[nH]c2=O)c1C)C1CCOCC1` [EPZ-6438, reference compound], the inhibition in vivo at 150 mg/kg in experiment [1] (150 mg/kg, intragastrically, twice a day for 21 days) stood at 59%. Also, in experiment [2], the inhibited tumor growth is recorded as 65%. In experiment [3], the inhibition in vivo at 100 mg/kg was 77%.
In the case of `CCN(c1cc(-c2ccc3c(c2)NC(=O)C32CCOCC2)cc(C(=O)NCc2c(OC)cc(C)[nH]c2=O)c1C)C1CCNCC1` [Example 3, 3-(ethyl(piperidin-4-yl)amino)-N-((4-methoxy-6-methyl-2-oxo-1,2-dihydropyridin-3-yl)methyl)-2-methyl-5-(2-oxo-2′,3′,5′,6′-tetrahydrospiro[dihydroindole-3,4′-pyran]-6-yl)benzamide], the inhibition in vivo at 150 mg/kg in experiment [1] turned out to be 83%.
For the compound `CCN(c1cc(-c2ccc3c(c2)N(CC(F)(F)C(F)(F)F)C(=O)C32CCOCC2)cc(C(=O)NCc2c(C)cc(C)[nH]c2=O)c1C)C1CCOCC1` [Example 39, N-((4,6-dimethyl-2-oxo-1,2-dihydropyridin-3-yl)methyl)-3-(ethyl(tetrahydro-2H-pyran-4-yl)amino)-2-methyl-5-(2-oxo-1-(2,2,3,3,3-pentafluoropropyl)-2′,3′,5′,6′-tetrahydrospiro[dihydroindole-3,4′-pyran]-6-yl)benzamide], the IC50 in experiment [4] amounted to 0.43 nM; in experiment [5] it was 0.34 nM; in experiment [6], 0.21 nM; in experiment [7], 0.74 nM.
As for `CCN(c1cc(-c2ccc3c(c2)C2(CC3)CC(C)N(CC)C(C)C2)cc(C(=O)NCc2c(OC)cc(C)[nH]c2=O)c1C)C1CCOCC1` (centres unmarked) [Example 50, 3-(ethyl(tetrahydro-2H-pyran-4-yl)amino)-5-(1′-ethyl-2′,6′-dimethyl-2,3-dihydrospiro[indene-1,4′-piperidine]-6-yl)-N-((4-methoxy-6-methyl-2-oxo-1,2-dihydropyridin-3-yl)methyl)-2-methylbenzamide formate], the IC50 was 0.68 nM in experiment [4]; 0.5 nM in experiment [5]; 0.32 nM in experiment [6]; 0.75 nM in experiment [8]; 0.76 nM in experiment [7].
`CCN(c1cc(-c2ccc3c(c2)NC(=O)C32CCOCC2)cc(C(=O)NCc2c(C)cc(C)[nH]c2=O)c1C)C1CCOCC1` [Example 66, N-((4,6-dimethyl-2-oxo-1,2-dihydropyridin-3-yl)methyl)-3-(ethyl(tetrahydro-2H-pyran-4-yl)amino)-2-methyl-5-(2-oxo-2′,3′,5′,6′-tetrahydrospiro[dihydroindole-3,4′-pyran]-6-yl)benzamide]: the inhibition in vivo at 150 mg/kg in experiment [1] was 81%.

The values above are taken from patent US12473298B2, “Amide compounds, preparation method therefor, and use thereof in the medical field” (Shanghai Synergy Pharmaceutical Sciences Co., Ltd., priority 2019, dated 2025).
